Two compounds from patent US11213517B2, “Pharmaceutical combination comprising a T-type calcium channel blocker” (IDORSIA PHARMACEUTICALS LTD, priority 2016, dated 2022) can be followed below.

This data set can be described thus: Plasma and brain concentrations of drugs at the end of the audiogenic seizure experiment (LC-MS). The data set is classed as in vivo, mouse. The conditions noted are these: oral gavage, mean ± SEM. Here is the method: At the end of the experiment, all mice were euthanized by CO2 inhalation to assess plasma and brain concentrations of drugs and the absence of pharmacokinetic interaction. Briefly, blood was sampled from the vena cava caudalis with a syringe pre-filled with EDTA (ethylenediamine tetraacetic acid) as anticoagulant and centrifuged to yield plasma (for 10 minutes, at 4° C. and 5000 rpm (rounds per minute)). Brain was sampled and homogenized into one volume of cold phosphate buffer (pH 7.4). Following extraction with methanol, concentrations of the compound in plasma and brain were determined using liquid chromatography coupled to mass spectrometry.
Different combination efficacy experiments are performed. Three different first line antiepileptic drugs (i.e. valproic acid (VPA), levetiracetam (LEV) or lamotrigine (LTG)), referred as anti-epileptic drugs (AEDs) below) were used in combination with N-[1-(5-Cyano-pyridin-2-ylmethyl)-1H-pyrazol-3-yl]-2-[4-(1-trifluoromethyl-cyclopropyl)-phenyl]-acetamide (COMPOUND 1). Each experiment consists of four treatment groups: • 1. Vehicle (10% Polyethylene glycol400 (PEG400)/90% methylcellulose (0.5% in water; MC0.5%)), 3 h before exposure to the auditory stimulus+vehicle, 1 h before exposure to the auditory stimulus; • 2. COMPOUND 1 (in 10% PEG400/90% MC0.5%), 3 h before exposure to the auditory stimulus+vehicle, 1 h before exposure to the auditory stimulus; • 3. Vehicle, 3 h before exposure to the auditory stimulus+AED (in 10% PEG400/90% MC0.5%), 1 h before exposure to the auditory stimulus; and • 4. COMPOUND 1 (in 10% PEG400/90% MC0.5%), 3 h before exposure to the auditory stimulus+AED (in 10% PEG400/90% MC0.5%), 1 h before exposure to the auditory stimulus.

Turning to `CC[C@@H](C(N)=O)N1CCCC1=O` [LEV, (S)-2-(2-oxopyrrolidin-1-yl)butanamide], the Plasma concentration total is 1208 ± 76 ng/mL (analyte LEV, vehicle 3 h + LEV 3 mg/kg 1 h before stimulus); 4007 ± 199 ng/mL (analyte LEV, vehicle 3 h + LEV 10 mg/kg 1 h before stimulus); 24156 ± 2669 ng/mL (analyte LEV, vehicle 3 h + LEV 50 mg/kg 1 h before stimulus).

Take `CCCC(CCC)C(=O)O` [VPA, 2-propylpentanoic acid]: the Plasma concentration total was 68144 ± 6868 ng/mL (analyte VPA, vehicle 3 h + VPA 100 mg/kg 1 h before stimulus) and 108600 ± 9893 ng/mL (analyte VPA, vehicle 3 h + VPA 200 mg/kg 1 h before stimulus).
